scFv variants of Ab-14 (light chain) against a SARS-CoV-2 spike peptide

Source: Engelhart et al. 2022 (doi:10.1038/s41597-022-01779-4), MIT Lincoln Laboratory and A-Alpha Bio; data file from the FLAb repository.

The target is the same throughout: PDVDLGDISGINAS, from the HR2 region of SARS-CoV-2 spike.

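The starting antibody came from a phage panning campaign against this peptide. The library (AAYL50) carries one to three amino acid substitutions per variant, with no insertions or deletions. Affinity was read by AlphaSeq, a pooled yeast mating assay with surface-displayed partners. The frequency of each diploid, read from paired DNA barcodes, reflects how well the two displayed proteins bind. The ratio of observed to expected reads was calibrated, replicate by replicate, on BCL2-family standards whose Kd was known from biolayer interferometry. There are three technical replicates.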

Parent scFv Ab-14: VH joined to VL by the linker GGGGSGGGGSGGGGS. Changes lie in the light chain CDRs alone.
VH: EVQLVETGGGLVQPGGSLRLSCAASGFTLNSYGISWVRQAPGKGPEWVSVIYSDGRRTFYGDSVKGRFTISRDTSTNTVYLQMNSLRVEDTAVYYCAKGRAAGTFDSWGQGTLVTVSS
VL: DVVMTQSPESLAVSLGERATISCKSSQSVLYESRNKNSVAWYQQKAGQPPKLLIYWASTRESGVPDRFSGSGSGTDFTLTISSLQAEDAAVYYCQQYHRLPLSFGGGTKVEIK

The whole VL of each variant is written out. All variants listed here change S103 of the VL, counted from its first residue. Scale: log10 of Kd in nM, estimated from mating counts; low values are strong binders. The mean shown is taken over the replicates in which the pair was detected. An entry "nd" has no value in the source: the pair was not observed among the diploids in that replicate. This suggests poor binding but is not conclusive. For reference, the parent read 0.65 as the reference entry and 1.68 as a member of this library.

* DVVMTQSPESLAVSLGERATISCKSSQSVLCESRNKNSVAWYQQKAGQPPKLLIYWASTYESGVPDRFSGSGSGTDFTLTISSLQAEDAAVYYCQQYHRLPLFFGGGTKVEIK: nd, nd, nd
* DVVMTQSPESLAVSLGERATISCKSSQSVLYESRNKNSVPWYQQKAGQPPKLLIYWASMRESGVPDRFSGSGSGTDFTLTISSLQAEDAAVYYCQQYHRLPLVFGGGTKVEIK: nd, nd, nd
* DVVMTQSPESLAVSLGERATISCKSSQSCLYESRNKNSVAWYQQKAGQPPKLLIYWASTRESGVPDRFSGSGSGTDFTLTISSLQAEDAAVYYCQQYHRLPEKFGGGTKVEIK: nd, nd, 5.01
* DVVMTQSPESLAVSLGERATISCKSSFSVLYESRNKNSVQWYQQKAGQPPKLLIYWASTRESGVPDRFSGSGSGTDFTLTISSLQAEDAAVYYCQQYHRLPLPFGGGTKVEIK: nd, nd, nd
* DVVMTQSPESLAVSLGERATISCKSSQSVLYESRNKNSCAWYQQKAGQPPKLLIYWASTAESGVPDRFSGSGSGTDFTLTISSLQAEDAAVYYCQQYHRLPLQFGGGTKVEIK: nd, nd, nd
* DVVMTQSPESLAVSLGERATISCKSSQSVLYESRCKNSVAWYQQKAGQPPKLLIYWASTREFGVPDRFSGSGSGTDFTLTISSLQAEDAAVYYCQQYHRLPLLFGGGTKVEIK: nd, nd, nd
* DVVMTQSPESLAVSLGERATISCKSSQSVLYESRNKQSVAWYQQKAGQPPKLLIYWASTRGSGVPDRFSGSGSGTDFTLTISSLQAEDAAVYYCQQYHRLPLNFGGGTKVEIK: 2.30, 3.13, 2.72 (mean 2.72)
* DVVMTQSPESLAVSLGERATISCKSSQSVLYESRNKNAVAWYQQKAGQPPKLLIYWTSTRESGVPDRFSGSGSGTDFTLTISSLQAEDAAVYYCQQYHRLPLYFGGGTKVEIK: nd, nd, nd
* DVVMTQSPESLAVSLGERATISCKSSISVLYESRNKNSVAWYQQKAGQPPKLLIYWASTRESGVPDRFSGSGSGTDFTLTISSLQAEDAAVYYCQQYHWLPLIFGGGTKVEIK: 1.59, 1.35, 0.90 (mean 1.28)
* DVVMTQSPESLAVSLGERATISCKASQSVLYESRGKNSVAWYQQKAGQPPKLLIYWASTRESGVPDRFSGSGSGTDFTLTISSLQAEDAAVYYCQQYHRLPLDFGGGTKVEIK: nd, nd, nd
* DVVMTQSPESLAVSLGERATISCKSSQSVLYESRNKNSVFWYQQKAGQPPKLLIYWASTRESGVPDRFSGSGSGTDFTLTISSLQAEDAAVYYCLQYHRLPLWFGGGTKVEIK: nd, nd, nd
* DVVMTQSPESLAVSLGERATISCHSSQSVLYESRNKNSVAWYQQKAGQPPKLLIYWASTRESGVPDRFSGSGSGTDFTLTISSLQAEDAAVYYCQQYHRLGLKFGGGTKVEIK: nd, nd, nd
* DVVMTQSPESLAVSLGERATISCKSSQSVLYESRNKNSVAWYQQKAGQPPKLLIYWASTRESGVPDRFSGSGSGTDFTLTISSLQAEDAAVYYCQQYGRLPTNFGGGTKVEIK: nd, nd, nd
* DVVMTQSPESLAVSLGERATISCKSSTSVLYESRNKNSVAWYQQKAGQPPKLLIYWASKRESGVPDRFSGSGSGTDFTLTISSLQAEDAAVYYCQQYHRLPLPFGGGTKVEIK: nd, 5.04, 6.11 (mean 5.58)
* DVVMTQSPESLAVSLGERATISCKSSQSVLYESRNKNSVAWYQQKAGQPPKLLIYWASTRESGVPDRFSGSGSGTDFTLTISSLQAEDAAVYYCQQHHRLPLLFGGGTKVEIK: 0.37, 0.72, 0.70 (mean 0.60)
* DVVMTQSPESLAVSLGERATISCKSSQSVLYRSRNKNSVAWYQQKAGQPPKLLIYWASTRESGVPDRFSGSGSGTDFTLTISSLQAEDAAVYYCQQYHRLPLPFGGGTKVEIK: 1.48, 1.63, 1.60 (mean 1.57)
* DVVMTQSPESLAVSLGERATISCKSSQSVLYELRNKNSVAWYQQKAGQPPKLLIYWASTRETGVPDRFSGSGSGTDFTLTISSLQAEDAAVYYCQQYHRLPLKFGGGTKVEIK: nd, nd, nd
* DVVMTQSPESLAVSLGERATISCKSSQSVLYESRNKFSVAWYQQKAGQPPKLLIYWASTDESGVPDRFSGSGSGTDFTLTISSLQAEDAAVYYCQQYHRLPLPFGGGTKVEIK: 3.66, nd, 5.50 (mean 4.58)
* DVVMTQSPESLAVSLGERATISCKSSQSVLYESRNKNSVAWYQQKAGQPPKLLIYWASTRQSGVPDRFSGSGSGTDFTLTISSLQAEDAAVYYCQQYHRLPLDFGGGTKVEIK: nd, nd, 6.25
* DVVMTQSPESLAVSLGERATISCKSSQSVLYESRNHSSVAWYQQKAGQPPKLLIYWASTRESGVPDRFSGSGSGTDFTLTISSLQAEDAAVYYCQQYHRLPLVFGGGTKVEIK: 1.90, 1.91, 1.91 (mean 1.91)
* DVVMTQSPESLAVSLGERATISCKDSVSVLYESRNKNSVAWYQQKAGQPPKLLIYWASTRESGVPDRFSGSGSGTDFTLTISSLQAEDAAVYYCQQYHRLPLWFGGGTKVEIK: 1.82, 2.69, 3.93 (mean 2.81)
* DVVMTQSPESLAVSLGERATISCKSTQSVLYEIRNKNSVAWYQQKAGQPPKLLIYWASTRESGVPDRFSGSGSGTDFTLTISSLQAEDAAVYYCQQYHRLPLYFGGGTKVEIK: nd, nd, nd
* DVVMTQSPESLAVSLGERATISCKSSQSVLYESRQKNSVAWYQQKAGQPPKLLIYWASTRESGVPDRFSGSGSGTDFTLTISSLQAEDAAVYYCQQYHRLPLAFGGGTKVEIK: 0.70, 0.76, 0.89 (mean 0.78)
* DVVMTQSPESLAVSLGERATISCKSSQSFLYESRNKNSAAWYQQKAGQPPKLLIYWASTRESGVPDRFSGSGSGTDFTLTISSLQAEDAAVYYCQQYHRLPLVFGGGTKVEIK: 1.53, 1.29, 1.65 (mean 1.49)
* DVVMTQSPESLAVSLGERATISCKSSQWVLYESRNKNSVAWYQQKAGQPPKLLIYWASTRESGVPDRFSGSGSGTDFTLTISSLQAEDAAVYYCQQYHRLPPIFGGGTKVEIK: 0.93, nd, 2.01 (mean 1.47)
* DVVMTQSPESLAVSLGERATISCKSSQSVLYESRNKNSVPWYQQKAGQPPKLLIYWASTRESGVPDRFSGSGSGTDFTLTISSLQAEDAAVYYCDQYHRLPLCFGGGTKVEIK: 5.54, nd, nd

The first 2 entries again:

- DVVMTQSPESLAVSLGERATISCKSSQSVLCESRNKNSVAWYQQKAGQPPKLLIYWASTYESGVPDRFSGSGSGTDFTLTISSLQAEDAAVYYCQQYHRLPLFFGGGTKVEIK = nd, nd, nd
- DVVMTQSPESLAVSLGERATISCKSSQSVLYESRNKNSVPWYQQKAGQPPKLLIYWASMRESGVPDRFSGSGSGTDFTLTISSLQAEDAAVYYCQQYHRLPLVFGGGTKVEIK = nd, nd, nd

Empty control strains, which show no peptide, gave a signal in 18% of pairings with library AAYL50; the median was 4.19 and 95% of these signals were weaker than 2.99. No background was subtracted.